According to US4948807A, “Phenyl carbamates” (priority 1985, dated 1990):

Columns and labels:
[1] = test system: brain acetylcholinesterase
Description: The effect of each compound on brain acetylcholinesterase in vivo was measured, after subcutaneous or oral administration to mice. Animals were sacrificed, at different times ranging from 0.25-8 hours after drug administration. The brain was rapidly removed, and the enzyme acetylcholinesterase extracted and solubilized with 0.1% Triton, and its ability to hydrolyse acetylthiocholine assessed as described above (in vitro experiments), in comparison with the enzyme removed from mice injected with normal saline.

in vivo = conditions: mouse
Description: Mice were given one of at least three different doses of each compound, orally or subcutaneously, a minimum of 10 mice allotted to each dose. The number of animals which died at each dose within 3 hours was determined.
This experiment was repeated after the animals had been pretreated with atropine sulphate, which blocks both peripheral and central muscarinic receptors.
What is important is the safety of the drugs and the presence and severity of side effects that may occur at therapeutic doses. A commonly-used measure of drug safety is the therapeutic index--or LD50 /ED50 [formula]
It is assumed that the therapeutic effect of these anticholinesterase agents results from an elevation of brain cholinergic activity. This in turn, should be related to the degree of inhibition of acetylcholinesterase. For the purpose of the computation of the denominator of the therapeutic ratio, there is used the dose of drug that inhibits the activity of acetylcholinesterase by 50%. […] The numerator is the dose found to kill 50% of the animals within […] of a subcutaneous injection.

| SMILES | Relative potency to physostigmine after oral administration ([1]; mouse brain, oral, physostigmine = 100) | % cholinesterase inhibition 3 hours after s.c. administration ([1]; mouse brain, s.c.) | Relative potency to physostigmine after subcut. (s.c.) administration ([1]; mouse brain, s.c., physostigmine = 100) | selectivity ratio (in vivo; Degree of protection afforded by pretreatment with atropine) | selectivity ratio (in vivo; Ratio whose head is drawing 10 (Table 3; oral LD50 compared with s.c. LD50)) | selectivity ratio (in vivo; sc, Therapeutic ratio LD50/ED50 s.c.) | bioavailability after oral administration compared with physostigmine ([1]; oral, in words) |
| --- | --- | --- | --- | --- | --- | --- | --- |
| CNC(=O)Oc1ccc2c(c1)[C@]1(C)CCN(C)[C@@H]1N2C [Physostigmine, reference compound] | 100 | 0% | 100 | 3 | 4.1 | 3.3 |  |
| CCN(C)C(=O)Oc1cccc(C(C)N(C)C)c1 (centres unmarked) [RA7, N-ethyl, N-methyl-3[1-(dimethylamino)ethyl]phenyl carbamate] |  | 41% |  |  |  |  | better bioavailability after oral administration than physostigmine |
